The results in this text go back to PubChem BioAssay AID2073 (Sanford-Burnham Center for Chemical Genomics, 2009).

Amino acid sequences for entries named in this document (tags omitted).
UniProt Q00975, whole entry, looked up: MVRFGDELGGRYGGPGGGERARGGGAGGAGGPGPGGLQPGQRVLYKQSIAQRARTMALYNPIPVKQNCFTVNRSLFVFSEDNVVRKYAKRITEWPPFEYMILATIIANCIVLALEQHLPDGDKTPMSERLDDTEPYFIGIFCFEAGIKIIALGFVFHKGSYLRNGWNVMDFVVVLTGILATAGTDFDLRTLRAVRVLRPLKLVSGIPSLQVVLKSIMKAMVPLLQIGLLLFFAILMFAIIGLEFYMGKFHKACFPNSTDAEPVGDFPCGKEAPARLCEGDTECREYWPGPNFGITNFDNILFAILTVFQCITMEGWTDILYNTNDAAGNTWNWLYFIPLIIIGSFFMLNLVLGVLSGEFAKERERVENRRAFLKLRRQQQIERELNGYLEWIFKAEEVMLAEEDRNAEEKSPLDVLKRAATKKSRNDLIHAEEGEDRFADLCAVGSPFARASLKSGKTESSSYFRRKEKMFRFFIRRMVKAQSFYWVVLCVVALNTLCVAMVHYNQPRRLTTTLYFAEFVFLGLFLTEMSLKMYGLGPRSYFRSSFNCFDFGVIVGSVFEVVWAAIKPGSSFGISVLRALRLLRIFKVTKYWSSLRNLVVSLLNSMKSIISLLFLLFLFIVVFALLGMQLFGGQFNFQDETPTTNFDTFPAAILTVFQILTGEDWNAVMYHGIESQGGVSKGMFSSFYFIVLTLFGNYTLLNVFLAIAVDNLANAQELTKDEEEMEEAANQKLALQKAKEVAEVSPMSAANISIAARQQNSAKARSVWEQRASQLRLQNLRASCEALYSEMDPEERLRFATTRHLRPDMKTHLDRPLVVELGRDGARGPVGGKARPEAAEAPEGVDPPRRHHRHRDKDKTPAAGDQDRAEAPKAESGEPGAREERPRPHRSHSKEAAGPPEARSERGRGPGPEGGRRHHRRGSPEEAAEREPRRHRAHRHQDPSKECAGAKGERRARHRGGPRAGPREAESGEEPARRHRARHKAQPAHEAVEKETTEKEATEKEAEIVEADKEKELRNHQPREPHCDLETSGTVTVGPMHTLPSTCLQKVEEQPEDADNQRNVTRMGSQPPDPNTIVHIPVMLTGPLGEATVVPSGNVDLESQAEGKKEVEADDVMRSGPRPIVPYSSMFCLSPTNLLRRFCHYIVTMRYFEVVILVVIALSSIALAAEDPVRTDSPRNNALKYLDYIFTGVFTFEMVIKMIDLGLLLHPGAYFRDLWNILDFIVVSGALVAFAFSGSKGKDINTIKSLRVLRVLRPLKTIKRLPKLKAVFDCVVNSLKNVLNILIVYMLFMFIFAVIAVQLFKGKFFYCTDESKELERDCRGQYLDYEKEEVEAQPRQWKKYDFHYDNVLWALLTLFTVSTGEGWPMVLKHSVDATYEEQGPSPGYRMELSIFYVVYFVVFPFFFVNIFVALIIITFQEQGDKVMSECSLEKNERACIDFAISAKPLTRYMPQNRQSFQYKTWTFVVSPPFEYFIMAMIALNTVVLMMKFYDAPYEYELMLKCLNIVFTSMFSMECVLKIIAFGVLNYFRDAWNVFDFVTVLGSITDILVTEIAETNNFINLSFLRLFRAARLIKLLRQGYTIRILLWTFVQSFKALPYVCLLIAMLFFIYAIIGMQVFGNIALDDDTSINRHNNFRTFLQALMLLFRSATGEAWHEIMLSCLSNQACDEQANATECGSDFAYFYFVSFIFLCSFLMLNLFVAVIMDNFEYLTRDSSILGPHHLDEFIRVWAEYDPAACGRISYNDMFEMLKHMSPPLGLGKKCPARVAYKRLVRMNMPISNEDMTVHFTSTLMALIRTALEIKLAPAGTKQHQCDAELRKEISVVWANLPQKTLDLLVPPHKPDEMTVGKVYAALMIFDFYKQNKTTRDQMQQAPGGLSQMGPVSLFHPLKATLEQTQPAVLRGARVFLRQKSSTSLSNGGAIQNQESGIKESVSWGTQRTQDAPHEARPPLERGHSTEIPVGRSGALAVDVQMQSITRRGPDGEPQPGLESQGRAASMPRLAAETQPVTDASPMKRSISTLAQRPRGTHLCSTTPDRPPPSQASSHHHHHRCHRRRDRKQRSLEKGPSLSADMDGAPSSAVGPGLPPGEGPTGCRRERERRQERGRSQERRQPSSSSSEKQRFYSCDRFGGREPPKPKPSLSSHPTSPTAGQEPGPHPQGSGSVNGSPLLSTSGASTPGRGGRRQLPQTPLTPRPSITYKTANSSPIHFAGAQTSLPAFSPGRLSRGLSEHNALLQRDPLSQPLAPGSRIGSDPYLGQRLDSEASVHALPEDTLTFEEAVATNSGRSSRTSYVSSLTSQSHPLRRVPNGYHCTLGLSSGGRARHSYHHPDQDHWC

By inhibition is commonly meant the drop in the measured response relative to a control, in per cent.

SMILES strings stand for the structures. Where “and” joins values, the source holds several entries; their conditions need not be identical. Identical values can stand only once. The entries are a selection whose mix differs from that of the whole data set. Potency and affinity values are given separately. Calls of active or inactive are those of the source. No stated cut-off is given here; in the data, active means inhibition mostly above about 51% (no sharp cut-off); inconclusive means no clear call, values can overlap the other calls; inactive means mostly below about 53%.

For the assay, the target named is Voltage-dependent N-type calcium channel subunit alpha-1B (Homo sapiens) (UniProt Q00975). In words: inhibitors of Mint1-CaV2.2 protein interaction, biochemical, HTRF (AID 2073). The note with it: at 20 µM, stronger effect = higher value.
As for `Cc1ccc(N/C(=N/P(=O)(N2CCOCC2)N2CCOCC2)N2CCOCC2)cc1`, the inhibition is inactive: -4.4%.
The figure for `NC(=O)c1cc([N+](=O)[O-])cc([N+](=O)[O-])c1N` is inactive: 8.3%; for `Clc1ccc(Cl)c(NC2=NCC(CBr)S2)c1` (configuration not stated) it is inactive: -6.6%; for `CN1CCCC(OC(=O)C(c2ccccc2)c2ccccc2)C1` (configuration not stated) it is inactive: -12.1%.
As for `Cc1ccc(OP(=O)(Nc2nccs2)Oc2ccc(C)cc2)cc1`, the figure is inactive: 2.3%; as for `COc1ccccc1OP(=O)(Nc1ccc(C)cn1)Oc1ccccc1OC`, inactive: 23.7%; as for `Cc1c2non([O-])c-2c(C)[n+](=O)[n+]1[O-]`, inactive: 19.1%.
The figure for `O=C(NC(Sc1ccncn1)C(Cl)(Cl)Cl)c1ccccc1` (configuration not stated) is inactive: -4.7%; for `Oc1ccccc1CNc1ccccn1` it is inactive: -2.1%.
As for `CC(C)CC(=O)NC(Sc1ccc(Cl)cc1)C(Cl)(Cl)Cl` (configuration not stated), the inhibition is inactive: 30.8%.
As for `Nc1cc(N)c2nonc2c1[N+](=O)[O-]`, the figure is inactive: -6.3%.
`O=P(Nc1nc2ccc(Cl)cc2s1)(c1ccccc1)c1ccccc1`: the inhibition was inactive: 15.3%.
As for `O=C(O)c1ccccc1[As](=O)(O)O`, the figure is inactive: 12%; as for `CC(=O)Nc1ccc([As](=O)(O)O)cc1`, inactive: 10.6%.
The figure for `Cc1ccc(NP(=O)(Oc2ccccc2F)Oc2ccccc2F)nc1` is inactive: 6.9%; for `CCOP(=O)(Nc1ccccc1)OCC` it is inactive: -2.9% and inactive: 3.5%.
As for `Cc1cc(SC(NC(=O)c2ccc(F)cc2)C(Cl)(Cl)Cl)ncn1` (configuration not stated), the figure is inactive: 12.5%; as for `O=[N+]([O-])c1cc([N+](=O)[O-])c(CCN2CCOCC2)c([N+](=O)[O-])c1`, inactive: 12.5%.
Consider `Nc1cccc2ccc([As](=O)(O)O)cc12`, for which the inhibition was inactive: 14.8%.
The figure for `CCN(N=Nc1nonc1N)c1nonc1N` is inactive: -2.8%.
Turning to `O=C(Nc1cc([As](=O)(O)O)ccc1O)c1ccccc1`, the inhibition was inactive: 19.5%.
As to `O=[N+]([O-])c1ncn(CCn2ncnc2[N+](=O)[O-])n1`, the inhibition was inactive: 7.6%.
As for `CC(C)(C)C(=O)NC(Sc1ccncn1)C(Cl)(Cl)Cl` (configuration not stated), the figure is inactive: -21.2%; as for `O=C(O)CNc1ccc([As](=O)(O)O)cc1`, inactive: 19.8%; as for `O=[N+]([O-])c1cccc(NC2=NCC(CBr)S2)c1` (configuration not stated), inactive: -6.7%.
For the molecule `COc1ccc(C2=NCC(CBr)S2)cc1` (configuration not stated), the inhibition is inactive: -38.4%.
The figure for `O=[N+]([O-])c1cc([N+](=O)[O-])c(CCNc2ccccc2)c([N+](=O)[O-])c1` is inactive: 7%; for `CCc1nc2c(n1)c1c(non1O)c1c2no[n+]1[O-]` it is inactive: -8.2%.
As for `Cc1ccc(NP(=O)(Oc2ccccc2)Oc2ccccc2)nc1`, the figure is inactive: 2.8%; as for `CC(=O)N1C2C3N(C(C)=O)C1C1N(C(C)=O)C(C(N1C(C)=O)N3C(C)=O)N2C(C)=O`, inactive: -3.8%.
For `O=[N+]([O-])c1cccc2n[nH]nc12`, the inhibition was inactive: 3.3%.
Take `CCN(/C(=N/P(=O)(N1CCOCC1)N1CCOCC1)N1CCOCC1)c1ccc(OC)cc1`: the inhibition is inactive: -1.1%.
As for `C[N+]1=C2C=CC=CC=C2SC12C([N+](=O)[O-])=CC([N+](=O)[O-])=C[C-]2[N+](=O)[O-]` (configuration not stated), the figure is inactive: 17.9%; as for `Nc1ccc([As](=O)(O)c2ccc(N)cc2)cc1`, inactive: 6.1%.
The figure for `CC1CCN(C(=O)Oc2c(Cl)cc(Cl)c3cccnc23)CC1` is inactive: -4.7%; for `CN(C)C(=O)OCCc1n(C)cc[n+]1C` it is inactive: 5.4%.
As for `CC(C)=N/N=C(\N)N[N+](=O)[O-]`, the figure is inactive: -14.6%.
In the case of `O=P(Nc1nccs1)(c1ccccc1)c1ccccc1`, the inhibition was inactive: 0.3%.
The figure for `CC(C)C(=O)NC(Sc1ccccc1)C(Cl)(Cl)Cl` (configuration not stated) is inactive: -4.3%; for `c1nnnn1CCn1cnnn1` it is inactive: -0.3%; for `CN(C)C1(CNC(=O)c2ccc(Cl)c(S(N)(=O)=O)c2)CCCCC1` it is inactive: 2%.
As for `O=P(Nc1ccccn1)(c1ccc(Br)cc1)c1ccc(Br)cc1`, the figure is inactive: 6.1%.
Turning to `C[C@H]1OP(=O)(Oc2ccccc2)[C@H](O)[C@H](O)[C@H]1N=[N+]=[N-]` (some centres not stated), the inhibition is inactive: -4.7%.
For the molecule `O=P(Nc1nc2ccccc2s1)(c1ccccc1)c1ccccc1`, the inhibition was inactive: -7.5%.
As for `O=[As](O)(c1ccccc1)c1ccc(O)cc1`, the figure is inactive: 6.1%.
As for `O=[N+]([O-])c1ncn(CCn2cnc([N+](=O)[O-])n2)n1`, the inhibition was inactive: 0.4%.
On to `CC(=O)NC(SC(=S)N(C)C)C(Cl)(Cl)Cl` (configuration not stated), for which the inhibition was inactive: -10.8%.
As for `O=[N+]([O-])c1ccc(O)c(/C=N/Nc2ccc([N+](=O)[O-])cc2[N+](=O)[O-])c1`, the figure is inactive: 3.7%; as for `O=C(OC1CN2CCC1CC2)c1cccc(Cl)c1` (configuration not stated), inactive: 8.3%.
As for `Nc1ccc([As](=O)(O)c2ccc([N+](=O)[O-])cc2)cc1`, the figure is inactive: -3%; as for `C(Cc1nn[nH]n1)Cc1nn[nH]n1`, inactive: -2.4%; as for `CCOC(=O)NC(Sc1ccccc1)C(Cl)(Cl)Cl` (configuration not stated), inactive: -27.1%.
For `Cc1ccc(NP(=O)(Oc2cccc(C)c2)Oc2cccc(C)c2)nc1`, the inhibition was inactive: 10.6%.
As for `c1ccc(-c2nn[nH]n2)c(-c2nn[nH]n2)c1`, the figure is inactive: -4.2%; as for `O=C(NC1CCS(=O)(=O)C1)NP(=S)(Oc1ccccc1)Oc1ccccc1` (configuration not stated), inactive: -13.3%.
Regarding `CCNC(=S)/N=C(\N)N[N+](=O)[O-]`, the inhibition was inactive: -4%.
The figure for `CCC(=O)N1C2C3N(C(=O)CC)C1C1N(C(=O)CC)C(C(N1C(=O)CC)N3C(=O)CC)N2C(=O)CC` is inactive: -5.5%; for `O=C(OC1CN2CCC1CC2)c1ccccc1` (configuration not stated) it is inactive: 15.8%.
As for `Cc1ccc(OP(=O)(Nc2ccccn2)Oc2ccc(C)cc2)cc1`, the inhibition is inactive: -15.9%.
For the molecule `CC(=O)NC(SC(=S)N(CC(C)C)CC(C)C)C(Cl)(Cl)Cl` (configuration not stated), the inhibition is inactive: -12.1%.
On to `COC(=O)c1cc2c(s1)N=C(c1ccccc1)N(C)P2(=O)N1CCOCC1` (configuration not stated), for which the inhibition is inactive: 8.1%.
As for `CN(C)C(=O)Oc1noc2ccccc12`, the figure is inactive: 9.3%; as for `O=c1c2cc([N+](=O)[O-])ccc2[nH]c2c([N+](=O)[O-])cc([N+](=O)[O-])cc12`, inactive: 1.1%; as for `Cc1ccccc1OP(=O)(Nc1ccccn1)Oc1ccccc1C`, inactive: 7.4%.
As for `CCOc1ccc(C2=NCC(CBr)S2)cc1` (configuration not stated), the figure is inactive: -14.7%; as for `O=P1(Nc2nc3ccc(Cl)cc3s2)COc2ccccc2O1` (configuration not stated), inactive: 1.2%.
The figure for `CC(C)(C)C(=O)NC(Sc1ccccc1)C(Cl)(Cl)Cl` (configuration not stated) is inactive: -9.1%; for `C[C@@H]1C=CCP(=O)(Oc2ccccc2)O1` (some centres not stated) it is inactive: 7.8%; for `C[C@H]1OP(=O)(Oc2ccccc2)C[C@@H]2O[C@@H]21` (some centres not stated) it is inactive: 10.8%.
`CC(=O)Nc1ccc(Oc2c([N+](=O)[O-])cc([N+](=O)[O-])cc2[N+](=O)[O-])cc1`: the inhibition was inactive: 3.4%.
As for `CC(=O)Nc1ccc([As](=O)(O)O)c(O)c1`, the figure is inactive: 6.7%; as for `O=C(OC1CN2CCC1CC2)c1ccc(Cl)cc1` (configuration not stated), inactive: 10.1%.
The figure for `CS(=O)(=O)c1ccc(Cl)c(NC(=O)COC(=O)C(O)(c2ccccc2)c2ccccc2)c1` is inactive: 8.4%.
As for `COc1cc(C(=O)NCC2(N3CCOCC3)CCCCC2)cc(Cl)c1OC(C)C`, the figure is inactive: 1.2%.
Turning to `O=[As](O)(O)c1cccnc1`, the inhibition is inactive: 9.2%.
Take `Cc1cccc(OCC(=O)OC2CN3CCC2CC3)c1` (configuration not stated): the inhibition was inactive: -1.7%.
The figure for `Cc1ccc(NCCc2c([N+](=O)[O-])cc([N+](=O)[O-])cc2[N+](=O)[O-])cc1` is inactive: 30.7%.
As for `CCCOP(=S)(Nc1nc(N)cc(=O)[nH]1)OCCC`, the figure is inactive: 10.4%; as for `CCOP(=O)(Nc1cccc2ccccc12)OCC`, inactive: 1.3%.
As for `COc1cc(C2NCCC3(OCCO3)C2(C)C)cc(OC)c1OC` (configuration not stated), the figure is inactive: -9%; as for `O=P(Nc1nccs1)(c1ccccc1)c1nc2ccccc2s1` (configuration not stated), inactive: 10.1%; as for `O=P(Nc1nccs1)(Oc1ccccc1)Oc1ccccc1`, inactive: -5.4%.
As to `CCOP1(=S)c2c(C)nn(CCC#N)c2N=C(c2ccccc2F)N1C` (configuration not stated), the inhibition was inactive: 2.5%.
Turning to `CS(=O)(=O)c1cc([N+](=O)[O-])c2no[n+]([O-])c2c1`, the inhibition is inactive: -20.4%.
As for `O=C(O)COc1ccc([As](=O)(O)O)cc1[N+](=O)[O-]`, the figure is inactive: 15.4%; as for `Nc1ccccc1[As](=O)(O)c1ccccc1`, inactive: 2.3%.
The figure for `NC(=O)Nc1ccc([As](=O)(O)O)cc1` is inactive: 3.5%.
In the case of `CCOP1(=S)c2c(C)nn(CCC#N)c2N=C(c2ccc(F)cc2)N1C` (configuration not stated), the inhibition is inactive: -0.8%.
As for `CN(C(=O)Cc1ccccc1)[C@@H]1CC[C@]2(CCCO2)C[C@H]1N1CCCC1`, the figure is inactive: 18%.
The figure for `O=[N+]([O-])c1ccc2c(c1)nnn2O` is inactive: -0.7%.
As for `Cc1ccc(C(=O)OC2CN3CCC2CC3)cc1` (configuration not stated), the inhibition is inactive: 12.6%.
The figure for `CC1CCC(C(C)C)C(OP(=O)(Nc2ccccn2)c2ccccc2)C1` (configuration not stated) is inactive: -0.4%.
As for `Cc1nn(-c2ccccc2)c2c1P(=O)(N1CCOCC1)N(C)C(c1ccccc1)=N2` (configuration not stated), the figure is inactive: 10.1%.
Regarding `CN(C)C1(CNC(=O)c2ccc(S(C)(=O)=O)cc2)CCCCC1`, the inhibition is inactive: 5.4%.
On to `O=C(/C=C/c1ccccc1)OC1CN2CCC1CC2` (configuration not stated), for which the inhibition was inactive: -5%.
Take `O=P1(Nc2ncccn2)COc2ccccc2OC1`: the inhibition is inactive: 24.7%.
The figure for `Nc1cccc([As](=O)(O)c2ccccc2)c1` is inactive: 4.6%; for `O=P1(Nc2ccc(Br)cn2)COc2ccccc2OC1` it is inactive: 0.8%; for `O=[As](O)(c1cccs1)c1cccs1` it is inactive: 12.6%.
On to `Cc1ccc(OCC(=O)OC2CN3CCC2CC3)cc1` (configuration not stated), for which the inhibition is inactive: 5%.
As to `CCOP(=O)(NC(=NC(C)c1ccccc1)NC(C)c1ccccc1)OCC` (configuration not stated), the inhibition was inactive: 2.3%.
Consider `CCC1=CC2Cc3nc4ccc(Cl)cc4c(N)c3C(C1)C2` (configuration not stated), for which the inhibition was inactive: 3.7%.
